Data set [1] deals with HK-2 cells. As to the kind of experiment: Standard 2D LIVE/DEAD dose-dependent toxicity assay. The conditions noted are these: standard 2D cell culture, 24 hours. The class given is cell-based, human. On the procedure:
Bioreactors were perfused with different concentrations of compounds dissolved in culture medium. […] TC50 concentrations were determined using MATLAB by sigmoidal curve fitting. […] Time to onset was analyzed by MATLAB based on LPF and trend assessment. […] Live cells were positive for green fluorescence due to hydrolysis of the acetoxymethyl ester group by intracellular esterases. Dead cells were positive for red fluorescence due to ethidium homodimer-1 binding intracellular DNA, possible in intact membranes.

Data set [2] deals with HK-2 and RPTEC monolayers. Kind of data set: Lipid accumulation assay (LipidTOX phospholipidosis and steatosis). Type of data set: cell-based, human. Particulars: 48 h exposure.

With Gentamicin, in data set [1], the TC50 was determined as 182.4 mM. Moreover, in data set [2], the “neutral lipid accumulation and phospholipidosis” value is on record as “mainly neutral lipids”.

Source of the values: US20210379094A1, “METHOD FOR REDUCING DRUG-INDUCED NEPHROTOXICITY” (Yissum Research Development Company of the Hebrew …, priority 2019, published 2021).
